The values that follow are results of earlier work, collected in patent US20050043319A1, “Molecular target of neurotoxicity” (EXONHIT THERAPEUTICS SA, priority 2001, published 2005).

For this series, the system named is Amyotrophic Lateral Sclerosis (ALS). The following applies: ALS patients; cited from earlier work.

On to `Nc1nc2ccc(OC(F)(F)F)cc2s1` [Riluzole], for which the extension of survival result is given as “about three”.
